Amino acid sequences for entries named in this document (tags omitted).
UniProt P35372, whole entry, looked up: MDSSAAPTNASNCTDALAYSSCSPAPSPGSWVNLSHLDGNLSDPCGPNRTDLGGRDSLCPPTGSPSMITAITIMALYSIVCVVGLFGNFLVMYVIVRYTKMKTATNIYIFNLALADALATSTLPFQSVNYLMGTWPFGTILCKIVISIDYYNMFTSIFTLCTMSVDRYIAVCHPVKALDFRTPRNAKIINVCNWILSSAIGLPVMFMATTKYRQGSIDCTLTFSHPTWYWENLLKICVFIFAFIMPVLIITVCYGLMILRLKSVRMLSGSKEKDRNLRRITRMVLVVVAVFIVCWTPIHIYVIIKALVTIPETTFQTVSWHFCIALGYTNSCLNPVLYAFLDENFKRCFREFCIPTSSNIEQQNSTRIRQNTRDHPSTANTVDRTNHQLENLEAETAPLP
UniProt P41143, whole entry, looked up: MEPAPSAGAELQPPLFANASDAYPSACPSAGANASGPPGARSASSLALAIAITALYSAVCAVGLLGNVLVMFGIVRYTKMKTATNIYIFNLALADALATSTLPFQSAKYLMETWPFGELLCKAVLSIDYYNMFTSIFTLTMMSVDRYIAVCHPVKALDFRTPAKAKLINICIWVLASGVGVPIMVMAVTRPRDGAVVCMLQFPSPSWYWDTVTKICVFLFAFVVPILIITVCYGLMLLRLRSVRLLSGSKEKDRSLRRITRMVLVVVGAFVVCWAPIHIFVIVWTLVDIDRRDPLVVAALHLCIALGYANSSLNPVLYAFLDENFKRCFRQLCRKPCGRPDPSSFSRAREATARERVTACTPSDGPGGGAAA

Where “and” joins values, the source holds several entries; their conditions need not be identical. Equal values may be shown once. Only a part is listed here, and it is no random draw. Calls of active or inactive are those of the source. Cut-off read from the data, not from the text of the source: active = inhibition above about 22% (passing the limit was not always enough); inactive = the rest.
What follows are compounds tested against Mu-type opioid receptor (Homo sapiens) + Delta-type opioid receptor (Homo sapiens) (UniProt P35372+P41143) (assay: OPRM1-OPRD1 heterodimer inverse agonism – cell-based, luminescence, primary screen (AID 504357;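 note: 0% = cells with DMSO and 100% = wells without cells with DMSO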)). Conditions: cell-based MOR-DOR heterodimer luminescence, at 9.3 µM, hits give high values.
`Cc1c2c(nc3ccccc13)SC(C(Cl)Cl)C2` (configuration not stated) was tested, and the inhibition was inactive: -20.5%.
For `NC(=O)CC(NC(=O)Cc1ccc(Br)cc1)c1ccc(NC2CCN(Cc3ccccc3)CC2)c([N+](=O)[O-])c1` (configuration not stated), the inhibition was inactive: -1.97%.
In the case of `O=C(Cn1cnc2ccccc21)NC(c1ccccc1)c1ccccc1`, the inhibition is reported as inactive: 6.48%.
In the case of `Cc1ccccc1Oc1ccc2c(c1)[C@@H]1C[C@H](N(C)C(=O)c3ccc(C#N)cc3)[C@H]([C@H](C)O)C(=O)N1CC2`, the inhibition is reported as inactive: 4.23%.
With `NC(=O)CS(=O)(=O)c1nc2ccccc2n1CC(=O)N1CCCCC1` the inhibition was inactive: 4.74%.
With `Cc1ccc(S(=O)(=O)N2CCCCC2)cc1NC(=O)Cn1cnc2c1c(=O)n(C)c(=O)n2C` the inhibition was inactive: 9.77%.
With `O=C(Cn1cnc2c(NCc3ccccc3)ncnc21)NCCCN1CCCC1=O` the inhibition was inactive: 18.3%.
With `c1ccc2c(c1)ncn2CCN1CCCCC1` the inhibition was inactive: -1.51%.
For `Cn1c(=O)c2c(ncn2CC(=O)Nc2nccs2)n(C)c1=O`, the inhibition was inactive: 12.2%.
With `CCn1cc(C(=O)N2CCn3c(nc4ccccc43)C2)c(=O)c2ccc(C)nc21` the inhibition was inactive: 5.05%.
For `Cc1cc(=O)[nH]c(N[N+](=O)[O-])n1`, the inhibition was inactive: -3.48%.
`Cn1c(=O)c2c(nc(Cl)n2CC(=O)N2CCCCC2)n(C)c1=O` was tested, and the inhibition was inactive: 11.4%.
For `O=C1C2CCCCC2C(=O)N1c1ccc(NC2CCN(Cc3ccccc3)CC2)c([N+](=O)[O-])c1` (configuration not stated), the inhibition was inactive: 5.52%.
`O=C(OC1CN2CCC1CC2)C12CC3CC(CC(C3)C1)C2` (configuration not stated) was tested, and the inhibition was inactive: 17%.
For `CC(C)(C)NC(=O)Cn1c(SCC(=O)NC2CC2)nc2ccccc21`, the inhibition was inactive: 18.5%.
`CSc1nc(N)nc2c1ncn2CC(=O)NCc1ccc2c(c1)OCO2` was tested, and the inhibition was inactive: 17%.
For `Cc1cnc(NC(=O)Cn2cnc3c2c(=O)n(C)c(=O)n3C)s1`, the inhibition was inactive: 14.3%.
With `O=C(O)CCc1nn2c3ccccc3n(CCN3CCCCC3)c2nc1=O` the inhibition was inactive: -6.37%.
For `Nc1nonc1-c1nc2ccccc2n1CC(=O)NC1CCCC1`, the inhibition was inactive: 11.1%.
`Cc1ccc(-c2csc(NCCn3c(-c4ccncc4)nc4cc(C(F)(F)F)ccc43)n2)cc1` was tested, and the inhibition was inactive: 9.85%.
With `Cc1ccc(Cn2nnnc2CN2CCC(n3nnc4cc(C(F)(F)F)ccc43)CC2)cc1` the inhibition was inactive: -44.6%.
With `Cc1ccc2c(c1)C1CN(C)CCC1N2C(=O)c1ccco1` (configuration not stated) the inhibition was inactive: 12.8%.
`Cc1ccc(S(=O)(=O)Nc2ccc(Cl)cc2)cc1NC(=O)Cn1cnc2c1c(=O)n(C)c(=O)n2C` was tested, and the inhibition was inactive: 1.12%.
In the case of `CC(C)NC(=O)CSc1nc2ccccc2n1CC(=O)N(C(C)C)C(C)C`, the inhibition is reported as inactive: -0.28%.
With `O=C(Cn1c(NCCO)nc2ccccc21)Nc1cccc(S(=O)(=O)N2CCCC2)c1` the inhibition was inactive: 11.8%.
With `CCN(CC)c1ccc(CNc2nc3ccccc3n2CCN2CCOCC2)cc1` the inhibition was inactive: 13.7%.
`CC(C)[Si]1(C(C)C)OCC2OC(n3cnc4c(N)ncnc43)C(N)C2O[Si](C(C)C)(C(C)C)O1` (configuration not stated) was tested, and the inhibition was inactive: -1.52%.
For `COC(=O)[C@H](Cc1ccc(O)cc1)NC(=O)Cn1cnc2c(SC)nc(N)nc21`, the inhibition was inactive: -0.79%.
`NC(=O)CC(NC(=O)c1cccc(Br)c1)c1ccc(NC2CCN(Cc3ccccc3)CC2)c([N+](=O)[O-])c1` (configuration not stated) was tested, and the inhibition was inactive: 8.12%.
For `N=c1n(CCN2CCCCC2)c2ccccc2n1CC(O)c1ccc(Cl)c(Cl)c1` (configuration not stated), the inhibition was inactive: -30.5%.
In the case of `CN(C)CCn1c(=N)n(CC(O)c2ccc(Cl)c(Cl)c2)c2ccccc21` (configuration not stated), the inhibition is reported as inactive: -40.2%.
In the case of `Cc1ccc(CNC(=O)Cn2cnc3c(OCc4ccccc4)ncnc32)o1`, the inhibition is reported as inactive: 14%.
In the case of `CN(c1ccccc1)S(=O)(=O)c1cccc(NC(=O)Cn2cnc3c2c(=O)n(C)c(=O)n3C)c1`, the inhibition is reported as inactive: -0.08%.
With `COc1cc(NC(=O)[C@@H](NC(=O)N2CCn3c2nc2ccccc23)C(C)C)cc(OC)c1` the inhibition was inactive: 14.4%.
For `Nc1nonc1-c1nc2ccccc2n1CC(=O)N1CCN(c2ccc(F)cc2)CC1`, the inhibition was inactive: -25.7%.
`Cc1cc2ncn(C3CC(=O)N(Cc4ccccc4)C3=O)c2cc1C` (configuration not stated) was tested, and the inhibition was inactive: -9.65%.
With `COc1cc(NC(=O)Cn2cnc3c(NCc4ccccc4)ncnc32)cc(OC)c1OC` the inhibition was inactive: 10.9%.
`O=[N+]([O-])c1cc(Oc2ccc([N+](=O)[O-])cc2C(F)(F)F)cc([N+](=O)[O-])c1` was tested, and the inhibition was inactive: -97.4%.
With `O=C(Cn1cnc2c(OCc3ccccc3)ncnc21)NCc1ccccn1` the inhibition was inactive: 3.97%.
With `Cn1c(=O)c2ncn(CC(=O)Nc3cccc(-c4nc5ccccc5s4)c3)c2n(C)c1=O` the inhibition was inactive: 5.64%.
For `c1ccc2c(c1)nc1n2CCN1CCNC1CCCCC1`, the inhibition was inactive: 16.8%.
`CN(C)C(=O)Cn1c(SCC(=O)NCc2ccc3c(c2)OCO3)nc2ccccc21` was tested, and the inhibition was inactive: 4.66%.
In the case of `COc1ccc(N/C(=N/P(=O)(N2CCOCC2)N2CCOCC2)N2CCOCC2)cc1`, the inhibition is reported as inactive: 15.1%.
For `CCN(CC)S(=O)(=O)c1ccc(OC)c(NC(=O)Cn2cnc3c2c(=O)n(C)c(=O)n3C)c1`, the inhibition was inactive: 13.5%.
`Brc1ccc(CNc2nc3ccccc3n2CCN2CCCCC2)cc1` was tested, and the inhibition was inactive: -15.3%.
With `COc1ccc(/C=N/NC(=O)Cn2c(Cc3ccc(OC)c(OC)c3)nc3ccccc32)cc1` the inhibition was inactive: -0.54%.
With `COC(=O)[C@H](CCSC)NC(=O)Cn1cnc2c(NCc3ccccc3)ncnc21` the inhibition was inactive: 9.69%.
For `Cc1ccc(OP(=O)(Nc2ccc([N+](=O)[O-])cn2)Oc2ccc(C)cc2)cc1`, the inhibition was inactive: 11.6%.
`Fc1ccc2c(c1)nnn2C1CCN(Cc2ccccc2)CC1` was tested, and the inhibition was inactive: -1.84%.
For `CN(C)CCn1cnc2c1c(=O)n(C)c(=O)n2C`, the inhibition was inactive: 8.27%.
In the case of `CCOC(=O)Cn1c(=O)c2c(nc3n2CCN3Cc2ccccc2)n(C)c1=O`, the inhibition is reported as inactive: 5.44%.
With `Cn1c(=O)c2c(nc(N3CCOCC3)n2CCNC2=NCCC2)n(C)c1=O` the inhibition was inactive: 18.2%.
With `O=C(Cn1c(C(F)(F)F)nc2ccccc21)N/N=C/c1ccco1` the inhibition was inactive: 10.8%.
`COc1ccc(S(=O)(=O)N2CCCCC2)cc1NC(=O)Cn1cnc2c1c(=O)n(C)c(=O)n2C` was tested, and the inhibition was inactive: 11.1%.
With `COc1ccc(CCNC(=O)[C@H](CCSC)NC(=O)N2CCn3c2nc2ccccc23)cc1OC` the inhibition was inactive: 11.5%.
In the case of `CSc1nc(N)nc2c1ncn2CC(=O)N[C@H](C)c1cccc2ccccc12`, the inhibition is reported as inactive: 3.45%.
`Cc1ccc2nc3c(c(C)c2c1)CC(C(Cl)Cl)S3` (configuration not stated) was tested, and the inhibition was inactive: 5.99%.
In the case of `CN1CCC(N(C)c2nc(-c3ccc([N+](=O)[O-])cc3)nc3ccccc23)CC1`, the inhibition is reported as inactive: -26.3%.
In the case of `O=C(Nc1ccc(F)cc1)N1CCn2c(nc3ccccc32)C1`, the inhibition is reported as inactive: 2.72%.
In the case of `C[C@H](NC(=O)N1CCn2c1nc1ccccc12)C(=O)NCc1ccco1`, the inhibition is reported as inactive: 3.38%.
In the case of `CC(C)CN(C(=O)Cn1c(Cl)nc2c1c(=O)n(C)c(=O)n2C)C1CCS(=O)(=O)C1` (configuration not stated), the inhibition is reported as inactive: 13.4%.
With `COc1ccc(NC(=O)Cn2c(NCC(C)O)nc3ccccc32)cc1Cl` (configuration not stated) the inhibition was inactive: 18.9%.
`O=C(Cn1c2[n+](c3ccc(C(F)(F)F)cc31)CCCCC2)Nc1ccc(Br)cc1` was tested, and the inhibition was inactive: 1.14%.
In the case of `CC(O)c1nc2ccccc2n1CC(=O)Nc1ccc(F)cc1Cl` (configuration not stated), the inhibition is reported as inactive: 3.26%.
`N=c1n(CCCOc2ccc(Br)cc2)c2ccccc2n1CC(N)=O` was tested, and the inhibition was inactive: 8.88%.
`Cc1ccc2c(c1)C1CN(C)CCC1N2S(=O)(=O)c1ccccc1F` (configuration not stated) was tested, and the inhibition was inactive: 7.75%.
`O=C(NCc1ccccc1)N1CCn2c(nc3ccccc32)C1` was tested, and the inhibition was inactive: 11.4%.
With `CCN(CC)CCn1c(NCc2ccc3c(c2)OCO3)nc2ccccc21` the inhibition was inactive: -0.23%.
With `Cc1ccccc1NC(=O)Cn1c(=O)n(C)c2ccccc21` the inhibition was inactive: -3.66%.
For `Cc1ccccc1OCC(O)Cn1c(=N)n(CCN2CCOCC2)c2ccccc21` (configuration not stated), the inhibition was inactive: 3.19% and inactive: 5.27%.
For `O=C1Nc2ccccc2C12Nc1ccccc1-c1nc3ccccc3n12` (configuration not stated), the inhibition was inactive: 8.8%.
In the case of `CC(NC(=O)[C@H](C)NC(=O)N1CCn2c1nc1ccccc12)c1ccccc1` (some centres not stated), the inhibition is reported as inactive: 15%.
`O=[N+]([O-])c1ccc(-c2cc([N+](=O)[O-])c(O)c([N+](=O)[O-])c2)cc1` was tested, and the inhibition was inactive: 14.4%.
For `Cc1ccc(S(=O)(=O)Nc2ccc3c(c2)nc2n3CCN(Cc3ccccc3)C2)cc1`, the inhibition was inactive: 0.43%.
For `Cn1c(=O)c2c(ncn2CC(=O)N/N=C/C(Br)=C/c2ccccc2)n(C)c1=O`, the inhibition was inactive: 3.92%.
In the case of `Cc1ccc(SCc2nc3ccccc3n2CC(=O)Nc2c(C)cccc2C)cc1`, the inhibition is reported as inactive: -7.94%.
`CN1CCN(c2nc3c(c(=O)[nH]c(=O)n3C)n2CC(N)=O)CC1` was tested, and the inhibition was inactive: 18.6%.
In the case of `CSc1nc2ccccc2n1CC(=O)Nc1c(C)cccc1C`, the inhibition is reported as inactive: -2.17%.
`O=[As](O)(c1ccc(O)cc1)c1ccccc1O` was tested, and the inhibition was inactive: 10%.
For `COc1ccc(NC(=O)N2CCn3c2nc2ccccc23)cc1`, the inhibition was inactive: -1.15%.
For `C[As](=O)(O)c1cccc(C(=O)O)c1`, the inhibition was inactive: 17.9%.
`Cn1c(=O)c2c(ncn2CC(=O)Nc2nc(-c3ccccc3Cl)cs2)n(C)c1=O` was tested, and the inhibition was inactive: -6.5%.
In the case of `O=C(Cn1c2[n+](c3ccc(C(F)(F)F)cc31)CCCCC2)Nc1c(F)cccc1F`, the inhibition is reported as inactive: -7.77%.
`COC(=O)[C@H](CC(C)C)NC(=O)Cn1cnc2c(SC)nc(N)nc21` was tested, and the inhibition was inactive: 10.2%.
With `CC1c2nc3ccccc3n2C(CC(=O)NCCCN2CCOCC2)C(=O)N1Cc1ccccc1` (configuration not stated) the inhibition was inactive: 8.49%.
In the case of `COc1ccc(CCNC(=O)[C@@H](NC(=O)N2CCn3c2nc2ccccc23)C(C)C)cc1OC`, the inhibition is reported as inactive: 5.58%.
`O=[N+]([O-])c1cc([N+](=O)[O-])c(-c2ccn[nH]2)s1` was tested, and the inhibition was inactive: -53.3%.

— PubChem BioAssay AID504357 (The Scripps Research Institute Molecular Screening Center, 2011)
